Target: Peroxisome proliferator-activated receptor gamma (Homo sapiens, UniProt P37231)
Test: Transactivation of Gal4 fused human PPARgamma LBD expressed in African green monkey COS7 cells after 42 hrs by dual luciferase reporter gene assay
Type: cell-based

Sequences of proteins named here, by UniProt entry; tags and fusion partners are left off. A change or cut given only in a name is not applied to a line headed by its entry.
UniProt P37231: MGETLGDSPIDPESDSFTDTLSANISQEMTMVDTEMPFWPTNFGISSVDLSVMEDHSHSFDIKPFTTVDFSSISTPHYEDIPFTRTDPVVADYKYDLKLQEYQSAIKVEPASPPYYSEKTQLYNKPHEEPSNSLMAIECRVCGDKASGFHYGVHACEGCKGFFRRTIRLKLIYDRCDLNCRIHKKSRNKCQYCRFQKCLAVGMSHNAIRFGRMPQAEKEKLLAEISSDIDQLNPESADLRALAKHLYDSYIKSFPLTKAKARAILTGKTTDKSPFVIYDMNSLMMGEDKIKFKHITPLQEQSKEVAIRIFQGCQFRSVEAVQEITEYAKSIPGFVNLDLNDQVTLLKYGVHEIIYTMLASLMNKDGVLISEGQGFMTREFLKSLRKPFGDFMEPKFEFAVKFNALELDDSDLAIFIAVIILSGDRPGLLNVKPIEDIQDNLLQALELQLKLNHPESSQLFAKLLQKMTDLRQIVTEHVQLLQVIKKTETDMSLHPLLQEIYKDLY

Activity: Dose-dependent effect
SMILES: CCCc1nc2cc(-c3cccc(Cl)c3)ccc2n1Cc1ccc(-c2ccccc2C(=O)O)cc1

Source: ChEMBL document CHEMBL3994588, “Importance of 5/6-aryl substitution on the pharmacological profile of 4'-((2-propyl-1H-benzo[d]imidazol-1-yl)methyl)-[1,1'-biphenyl]-2-carboxylic acid derived PPARγ agonists” (Eur J Med Chem, 2017)
